Experiment [1] has as its target Fibroblast growth factor receptor 3 (FGFR3), form not stated (as named in the summary) (Mus musculus (Mouse)) (UniProt Q61851). In words: not stated (told in the summary).
Experiment [2] has as its target Soluble extracellular domain of murine FGFR2 (IIIc isoform) coupled to human placental alkaline phosphatase (murine; human) (UniProt P21803). In words: 125I-FGF9 saturation binding to soluble receptor-AP on plates, Scatchard analysis.
The target of experiment [3] is Soluble extracellular domain of murine FGFR3 (IIIc isoform) coupled to human placental alkaline phosphatase (murine; human) (UniProt Q61851). The experiment is described as above.
For experiment [4], the target named is Soluble extracellular domain of murine FGFR2 (IIIc isoform) coupled to human placental alkaline phosphatase (murine; human) (UniProt P21803). In words: 125I-FGF9 saturation binding to soluble receptor-AP on plates, Scatchard analysis, within every single experiment.

For “Recombinant mouse FGF9 (fibroblast growth factor 9) (from UniProt P36364 1-208) (ligand)”, the Kd (commonly the equilibrium constant for the complex coming apart) came out at 0.25 nM in experiment [1], 2.38 nM in experiment [2] and 0.78 nM in experiment [3]. The substance also registered a fold lower affinity compared to FGFR3 in experiment [4] of 3 fold.
